pKd: −log10 of the molar value.

The values that follow come from patent US20150017739A1.

The target of experiment [1] is alpha synuclein (αS) monomers (Homo sapiens (Human)) (UniProt P37840). Put plainly: SEC, PG65 + αS monomer sample at 35 µM each. A general note: Size exclusion chromatography separates by hydrodynamic size, large species first.
The target in experiment [2] is alpha synuclein (αS) oligomers (αS oligomer sample after 6 h incubation; mostly high molecular weight (HMW) αS oligomers) (Homo sapiens (Human)) (UniProt P37840). The experiment can be described thus: FIAsH fluorescence (RFC) titration, PG65 at 0.5 µM against monomer-equivalent αS concentration.
Experiment [3] has the same target. The experiment can be described thus: cell-based or functional assay.
Experiment [4] has as its target αS oligomers prepared after 0 h incubation (Homo sapiens (Human)) (UniProt P37840). The experiment can be described thus: cell-based or functional assay.

As to “PG65 (engineered alpha synuclein variant; first αS linker region NVGG replaced with the tetracysteine motif CCPGCC) (designed binder)”, in experiment [1], the ratio of the major peak area of the mixture sample to that of the simple sum of individual proteins turned out to be 1.01. In addition, in experiment [2], the pKd was 6.00. Besides, in experiment [3], the quantum yield of FIAsH: PG65 bound to HMW αS oligomers against PG65 without αS came out at 9 fold; the ratio of RFCs: sample with αS monomers, oligomers and fibrils at 2.5 µM each to αS oligomers only at 2.5 µM worked out at 1; the αS concentration at which the αS oligomer-dependent RFC leveled off amounted to 2.5 µM; the αS oligomer concentration detected by RFC is 1.5 µM. Also, in experiment [4], the RFC against αS oligomers formed after 6 h at the same αS concentration was determined as 2 fold lower.

As usually defined, the pKd is the Kd on a negative log10 scale, so that one unit is a factor of ten.
